{
  "source": "paper PMC10215740",
  "about": "“Concentrations of Co-Administered Meropenem and Vancomycin in Spinal Tissues Relevant for the Treatment of Pyogenic Spondylodiscitis—An Experimental Microdialysis Study” (Antibiotics, 2023)",
  "assay": "Plasma and spinal tissue pharmacokinetics by microdialysis after single-dose co-administered i.v. meropenem and vancomycin",
  "conditions": "for AUCtissue/AUCplasma (tissue penetration): ratio tissue-free/plasma-free AUC0-8h, pigs n = 8, single i.v. 1000 mg meropenem + 1000 mg vancomycin",
  "description": "Eight female pigs (Danish Landrace breed, weight 78–82 kg) were included. In general anaesthesia, microdialysis catheters were placed in the third cervical (C3) vertebral cancellous bone, the C3-C4 intervertebral disc, paravertebral muscle, and adjacent subcutaneous tissue. Plasma samples were obtained as a reference. Abiding by the recommendations of replacement, reduction, and refinement (the 3 Rs) when conducting animal studies, the data sampled in extrathecal spinal tissues in the present study are derived from animals where lower extremity data were reported previously. […] The dose and mode of administration used were in accordance with the clinical practice at our institution. Sampling was conducted for 8 h.\n(Figure 3). The microdialysis catheters used were CMA 70 (membrane length 10 and 20 mm, molecular mass cut of 20 kDa; M Dialysis AB, Stockholm, Sweden). Through an anterolateral approach, the C2, C3, and C4 vertebrae were exposed. Using a 2 mm drill, a 25 mm drill hole was made into the C3 vertebra in which a 20 mm microdialysis catheter was placed. Afterward, with aid from a splitable microdialysis introducer (M Dialysis AB, Stockholm, Sweden), a 10 mm microdialysis catheter was positioned in the C3-C4 intervertebral disc, and a 20 mm microdialysis catheter was positioned in both the exposed paravertebral muscle and adjacent subcutaneous tissue. Correct positioning of the microdialysis catheters in the vertebra and the intervertebral disc was verified by fluoroscopy. The catheters were connected to precision pumps (CMA 107; M Dialysis AB, Stockholm, Sweden) and perfused with 0.9% NaCl solution at a flow rate of 1 μL/min.\nAfter catheter placement, microdialysis sampling was initiated with a tissue-equilibration period of 20 min prior to the antibiotic intravenous administration. […] Microdialysates were collected at 30 min intervals for the first 4 h, and at 60 min intervals for the last 4 h, resulting in a total of 12 samples during an 8-h dosing interval. At the midpoint of each sampling interval, blood samples were collected from a central venous catheter for reference. The blood samples were stored at 5 °C for a maximum of 6 h before being centrifuged (room temperature, 3000 g, 10 min), and plasma aliquots were made. […] The recovery sample was later used for individual catheter calibration and calculation of absolute tissue concentrations. […]\nThe free drug concentration of meropenem in plasma was quantified using ultra-high performance liquid chromatography (UHPLC).",
  "note": "Marks after values point to notes of the source that are not given here.",
  "data": [
    {"smiles": "CN[C@H](CC(C)C)C(=O)N[C@H]1C(=O)N[C@@H](CC(N)=O)C(=O)N[C@H]2C(=O)N[C@H]3C(=O)N[C@H](C(=O)N[C@H](C(=O)O)c4cc(O)cc(O)c4-c4cc3ccc4O)[C@H](O)c3ccc(c(Cl)c3)Oc3cc2cc(c3O[C@@H]2O[C@H](CO)[C@@H](O)[C@H](O)[C@H]2O[C@H]2C[C@](C)(N)[C@H](O)[C@H](C)O2)Oc2ccc(cc2Cl)[C@H]1O", "note": "[Vancomycin, vancomycin]", "values": [
      {"measurement": "Tmax", "setting": "intervertebral disc, microdialysis, pigs, one disc catheter malfunctioned, single i.v. 1000 mg meropenem + 1000 mg vancomycin co-administered, mean (95%CI)", "value": "275 (225; 325) min"},
      {"measurement": "AUCtissue/AUCplasma (tissue penetration)", "setting": "paravertebral muscle", "value": "0.36 (0.24; 0.47)"},
      {"measurement": "AUCtissue/AUCplasma (tissue penetration)", "setting": "subcutaneous tissue", "value": "0.53 (0.41; 0.64)"},
      {"measurement": "AUCtissue/AUCplasma (tissue penetration)", "setting": "vertebral cancellous bone", "value": "0.24 (0.12; 0.35)^b"}
    ]}
  ]
}
